Reference: paper PMC11249646, “Small-Molecule Disruptors of the Interaction between Calcium- and Integrin-Binding Protein 1 and Integrin αIIbβ3 as Novel Antiplatelet Agents” (ACS Pharmacology & Translational Science, 2024)

By UniProt entry, the sequences of proteins in these tests, tags left out.
UniProt Q99828, whole entry: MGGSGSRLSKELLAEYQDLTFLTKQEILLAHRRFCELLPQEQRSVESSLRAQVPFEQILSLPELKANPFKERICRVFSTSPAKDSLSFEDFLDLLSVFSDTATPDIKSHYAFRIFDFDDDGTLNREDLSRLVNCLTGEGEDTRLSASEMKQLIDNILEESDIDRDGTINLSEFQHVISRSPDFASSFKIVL

Target: CIB1 and αIIb interaction (CIB1-GST : F-αIIb peptide) (Homo sapiens, UniProt Q99828)
Assay: FP assay, 1536-well qHTS format (primary and confirmatory screen)
Type: binding
Settings: qHTS primary screen hits, Table S2; for Efficacy (%): negative = inhibition; for Curve Class: negative sign = inhibitory curve
[1] = several classes where COUNT > 1

Row | SMILES | Efficacy (%) | Curve Class | IC50 [µM] | Curve Class [1]
1 | COc1c(O)cccc1[C@H](O)C1CCN(CCc2ccc(F)cc2)CC1 [NCGC00168042-01] | -53 | -2.2 |  | 
2 | O=C(CCC1=[N+]2C(=Cc3ccc(-c4cccs4)n3[B-]2(F)F)C=C1)NCCOCCOCCOc1ccc(-n2ncc3c2CCC[C@H]3NC(=O)c2ccccn2)cc1 | -103 |  | 14.1 | -1.1
3 | O=C1C[C@](c2ccc(N3CCOCC3)cc2)(c2ccsc2)NC(=O)C1Sc1ccccc1Cl (stereo partly shown) | -34 |  | 26.1 | 
4 | Cc1ccc(S(=O)(=O)N[C@@H](Cc2ccccc2)C(=O)CCl)cc1 | -20 |  | 4 | -1.2
